For this assay, the target named is T1, receptor for GLP-1-(7-36)-NH2 on B cells (clonal B cell line INS-1) (Rattus norvegicus, UniProt P32301).
T1 construct: endogenous in cells; host or cells: INS-1 cells (whole detached cells)
T1 sequence (P32301 22-463): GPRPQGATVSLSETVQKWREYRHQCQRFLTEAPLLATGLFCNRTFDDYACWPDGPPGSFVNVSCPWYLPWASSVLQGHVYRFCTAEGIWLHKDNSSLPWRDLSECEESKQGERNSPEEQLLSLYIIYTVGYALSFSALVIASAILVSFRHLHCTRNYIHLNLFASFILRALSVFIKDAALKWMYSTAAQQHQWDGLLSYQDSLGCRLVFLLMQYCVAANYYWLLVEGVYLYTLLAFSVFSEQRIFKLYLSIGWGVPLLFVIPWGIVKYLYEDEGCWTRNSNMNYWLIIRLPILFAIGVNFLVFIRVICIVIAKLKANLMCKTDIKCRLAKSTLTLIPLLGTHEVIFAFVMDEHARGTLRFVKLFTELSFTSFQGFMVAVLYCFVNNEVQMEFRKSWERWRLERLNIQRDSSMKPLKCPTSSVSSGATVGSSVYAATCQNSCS
Kind of assay: Competition with 125I-GLP1-(7-36)-NH2 on INS-1 cells (receptor affinity). Conditions: competition with 125I-GLP1-(7-36)-NH2, INS-1 cells; read-out: Kd ± SD. The assay is classed as binding. The procedure:
The detached cells are taken up and suspended in Krebs-Ringer buffer (25 mM Tris, 120 mM NaCl, 1.2 mM MgSO4, 5 mM KCl, 1 mM Na-EDTA, 15 mM CH3COONa adjusted to pH 7.4 and supplemented with 1% HSA and 0.1% bacitracin). […] Subsequently it is incubated for 30 minutes at 37° C., centrifuged for 4 minutes at 13,000 rpm, washed three times with buffer and the radioactivity bound to the pellet (γ-counter) is measured. Competition curves were obtained by incubation with 10 different dilutions of the peptide to be tested (10^−10-10^−6 M in Krebs-Ringer buffer).

For `CCCC[C@H](NC(=O)[C@H](CCC(N)=O)NC(=O)[C@H](CCCCN)NC(=O)[C@H](CO)NC(=O)[C@H](CC(C)C)NC(=O)[C@H](CC(=O)O)NC(=O)[C@H](CO)NC(=O)[C@@H](NC(=O)[C@H](Cc1ccccc1)NC(=O)[C@@H](NC(=O)CNC(=O)[C@H](CC(=O)O)NC(=O)[C@H](CO)NC(=O)[C@@H](N)Cc1c[nH]cn1)[C@@H](C)O)[C@@H](C)O)C(=O)N[C@@H](CCC(=O)O)C(=O)N[C@@H](CCC(=O)O)C(=O)N[C@@H](CCC(=O)O)C(=O)N[C@@H](C)C(=O)N[C@H](C(=O)N[C@@H](CCCNC(=N)N)C(=O)N[C@@H](CC(C)C)C(=O)N[C@@H](Cc1ccccc1)C(=O)N[C@H](C(=O)N[C@@H](CCC(=O)O)C(=O)N[C@@H](Cc1c[nH]c2ccccc12)C(=O)N[C@@H](CC(C)C)C(=O)N[C@@H](CCCCN)C(=O)N[C@@H](CC(N)=O)C(=O)NCC(=O)N[C@@H](Cc1ccc(O)cc1)C(N)=O)[C@@H](C)CC)C(C)C` [compound 69], the Kd (usually the constant that tells how readily two partners part at equilibrium) was determined as 0.56 ± 0.08 nM.
